Source: patent US20220389009A1, “SUBSTITUTED 1,6-NAPHTHYRIDINE INHIBITORS OF CDK5” (Goldfinch Bio, Inc., priority 2019, published 2022)

Sequences of proteins named here, by UniProt entry; tags and fusion partners are left off. Residues count along the entry.
UniProt Q00535, whole entry: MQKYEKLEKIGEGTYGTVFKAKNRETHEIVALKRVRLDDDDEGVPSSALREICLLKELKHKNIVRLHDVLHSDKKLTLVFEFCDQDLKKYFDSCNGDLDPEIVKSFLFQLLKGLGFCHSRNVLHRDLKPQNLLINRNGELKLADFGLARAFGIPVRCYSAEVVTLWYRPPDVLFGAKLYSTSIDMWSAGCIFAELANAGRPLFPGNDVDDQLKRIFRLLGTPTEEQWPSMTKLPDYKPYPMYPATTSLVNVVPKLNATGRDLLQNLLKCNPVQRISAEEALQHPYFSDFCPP
UniProt Q15078, 99-307 partner limits assumed: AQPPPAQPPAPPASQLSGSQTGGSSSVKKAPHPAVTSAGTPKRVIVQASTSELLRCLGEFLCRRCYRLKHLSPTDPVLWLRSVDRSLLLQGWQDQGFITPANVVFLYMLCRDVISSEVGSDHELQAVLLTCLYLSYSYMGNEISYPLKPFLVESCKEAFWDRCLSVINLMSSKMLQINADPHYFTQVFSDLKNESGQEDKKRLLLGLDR

What was measured:
[1] = target: CDK2/CycA2 (Homo sapiens, UniProt P24941); experiment: CDK2 mobility shift assay (enzymatic activity of CDK2/CycA2); conditions: read-out: CDK2 IC50; 1.25 nM CDK2/CycA2, 37 μM ATP, FL Peptide 18, 120 min at room temperature
[2] = target: CDK5/p25 (Homo sapiens, UniProt Q00535); experiment: CDK5 mobility shift assay (enzymatic activity of CDK5/p25); conditions: for CDK5/CDK2 specificity: fold more active against CDK5 than CDK2; for IC50: read-out: CDK5 IC50, 0.154 nM CDK5/p25, FL peptide 29, 60 min at room temperature

Compound | IC50 [1] [µM] | IC50 [2] [µM] | CDK5/CDK2 specificity [2]
CN1CCC(S(=O)(=O)c2ccc3cnc(Nc4ccc(-n5ccc(C#N)n5)cc4F)cc3n2)CC1 | > 1 | < 0.01 | +++ (greater than 100-fold more active against CDK5 than CDK2)
CCOC(=O)c1ccccc1-c1ccc(Nc2cc3nc(S(=O)(=O)C4CCN(C)CC4)ccc3cn2)c(F)c1 | > 1 | 0.01 to 0.1 | +++ (greater than 100-fold more active against CDK5 than CDK2)
CN1CCC(S(=O)(=O)c2ccc3cnc(Nc4cccnc4O)cc3n2)CC1 | > 1 | 0.1 to 1 | ++ (greater than 10-fold and less than or equal to 100-fold more active against CDK5 than CDK2)
N[C@H]1CC[C@H](N(CC(=O)O)c2ccc3cnc(Nc4ccc(-n5cccn5)cc4F)cc3n2)CC1 | > 1 | 0.1 to 1 | ++ (greater than 10-fold and less than or equal to 100-fold more active against CDK5 than CDK2)
CN(C)[C@H]1CC[C@@H](N(CC(=O)O)c2ccc3cnc(Nc4ccc(-n5cccn5)cc4F)cc3n2)CC1 (relative stereo) | > 1 | > 1 | + (10-fold or less more active against CDK5 than CDK2)
C[C@@H]1CN(C)CC[C@H]1S(=O)(=O)c1ccc2cnc(Nc3ccc(-n4ccc(CO)n4)cc3F)cc2n1 | > 1 | 0.01 to 0.1 | ++ (greater than 10-fold and less than or equal to 100-fold more active against CDK5 than CDK2)
CO/N=C(\c1ccc2cnc(Nc3ccc(-n4cccn4)cc3F)cc2n1)C1CCN(C)CC1 | > 1 | 0.1 to 1 | ++ (greater than 10-fold and less than or equal to 100-fold more active against CDK5 than CDK2)
Cc1cccc(-c2ccc(Nc3cc4nc(S(=O)(=O)C5CCN(C)CC5)ccc4cn3)c(F)c2)c1 | > 1 | < 0.01 | +++ (greater than 100-fold more active against CDK5 than CDK2)
COc1ncccc1-c1ccc(Nc2cc3nc(S(=O)(=O)C4CCN(C)CC4)ccc3cn2)c(F)c1 | > 1 | < 0.01 | +++ (greater than 100-fold more active against CDK5 than CDK2)
CN1CCC(N(CC(=O)O)c2ccc3cnc(Nc4ccc(-c5cccc(C#N)c5)cc4F)cc3n2)CC1 | 0.1 to 1 | < 0.01 | ++ (greater than 10-fold and less than or equal to 100-fold more active against CDK5 than CDK2)
COc1ccc(-c2ccc(Nc3cc4nc([C@@](C)(O)C5CCN(C)CC5)ccc4cn3)c(F)c2)cc1 | > 1 | 0.1 to 1 | ++ (greater than 10-fold and less than or equal to 100-fold more active against CDK5 than CDK2)
CC(C(=O)O)N(c1ccc2cnc(Nc3ccc(-n4ccc(CO)n4)cc3F)cc2n1)C1CCNCC1 (stereo not drawn) | > 1 | > 1 | + (10-fold or less more active against CDK5 than CDK2)
CN1CCC([C@H](O)c2ccc3cnc(Nc4ccc(-n5cccn5)cc4F)cc3n2)CC1 (single isomer, unassigned) | > 1 | 0.01 to 0.1 | ++ (greater than 10-fold and less than or equal to 100-fold more active against CDK5 than CDK2)
CCN1CCC([C@@](C)(O)c2ccc3cnc(Nc4ccc(-c5cccn(C)c5=O)cc4F)cc3n2)CC1 | 0.1 to 1 | 0.01 to 0.1 | ++ (greater than 10-fold and less than or equal to 100-fold more active against CDK5 than CDK2)
CC(C)N1CCC(N(CC(=O)O)c2ccc3cnc(Nc4ccc(-n5ccc(CO)n5)cc4F)cc3n2)CC1 | > 1 | 0.01 to 0.1 | +++ (greater than 100-fold more active against CDK5 than CDK2)
CC[C@H](c1ccc2cnc(Nc3ccc(-n4ccc(CO)n4)cc3F)cc2n1)C1CCN(C)CC1 | > 1 | 0.01 to 0.1 | +++ (greater than 100-fold more active against CDK5 than CDK2)
CCOC(=O)c1cccc(-c2ccc(Nc3cc4nc(S(=O)(=O)C5CCN(C)CC5)ccc4cn3)c(F)c2)c1 | > 1 | < 0.01 | +++ (greater than 100-fold more active against CDK5 than CDK2)
CN1CCC(S(=O)(=O)c2ccc3cnc(Nc4cncnc4)cc3n2)CC1 | > 1 | 0.1 to 1 | + (10-fold or less more active against CDK5 than CDK2)
O=S(=O)(c1ccc2cnc(Nc3ccc(-n4ccc(CO)n4)cc3F)cc2n1)C1CCN(CCO)CC1 | 0.1 to 1 | 0.01 to 0.1 | ++ (greater than 10-fold and less than or equal to 100-fold more active against CDK5 than CDK2)
CN[C@@H](c1ccc2cnc(Nc3ccc(-n4cccn4)cc3F)cc2n1)C1CCN(C)CC1 | 0.1 to 1 | 0.01 to 0.1 | ++ (greater than 10-fold and less than or equal to 100-fold more active against CDK5 than CDK2)

More lines, main results first:

IC50 [1] [µM] | IC50 [2] [µM] | Compound | CDK5/CDK2 specificity [2]
0.01 to 0.1 | < 0.01 | CN1CCC([C@@](C)(O)c2ccc3cnc(Nc4ccc(N5CCN(C)C5=O)cc4F)cc3n2)CC1 | ++ (greater than 10-fold and less than or equal to 100-fold more active against CDK5 than CDK2)
0.1 to 1 | 0.01 to 0.1 | C[C@]1(N)CC[C@@H](S(=O)(=O)c2ccc3cnc(Nc4ccc(-n5ccc(CO)n5)cc4F)cc3n2)CC1 | ++ (greater than 10-fold and less than or equal to 100-fold more active against CDK5 than CDK2)
0.01 to 0.1 | < 0.01 | COc1nccnc1-c1ccc(Nc2cc3nc(C(C)(O)C4CCN(C)CC4)ccc3cn2)c(F)c1 (stereo not drawn) | ++ (greater than 10-fold and less than or equal to 100-fold more active against CDK5 than CDK2)
0.1 to 1 | < 0.01 | COc1cc(-c2ccc(Nc3cc4nc([C@](C)(O)C5CCN(C)CC5)ccc4cn3)c(F)c2)ccn1 | ++ (greater than 10-fold and less than or equal to 100-fold more active against CDK5 than CDK2)
0.1 to 1 | < 0.01 | CN1CCC(S(=O)(=O)c2ccc3cnc(Nc4ccc(-c5ccccc5C(N)=O)cc4F)cc3n2)CC1 | ++ (greater than 10-fold and less than or equal to 100-fold more active against CDK5 than CDK2)
0.1 to 1 | < 0.01 | N[C@H]1CC[C@H](S(=O)(=O)c2ccc3cnc(Nc4ccc(-n5cccn5)cc4F)cc3n2)CC1 | ++ (greater than 10-fold and less than or equal to 100-fold more active against CDK5 than CDK2)
0.1 to 1 | < 0.01 | CN1CCC(S(=O)(=O)c2ccc3cnc(Nc4ccc(-c5nnn[nH]5)cc4)cc3n2)CC1 | +++ (greater than 100-fold more active against CDK5 than CDK2)
0.1 to 1 | < 0.01 | CCn1cccc(-c2ccc(Nc3cc4nc(C(C)(O)C5CCN(C)CC5)ccc4cn3)c(F)c2)c1=O (stereo not drawn) | ++ (greater than 10-fold and less than or equal to 100-fold more active against CDK5 than CDK2)
0.01 to 0.1 | < 0.01 | CN1CCC(Sc2ccc3cnc(Nc4ccc(-n5ccc(C(=O)O)n5)cc4F)cc3n2)CC1 | ++ (greater than 10-fold and less than or equal to 100-fold more active against CDK5 than CDK2)
0.01 to 0.1 | < 0.01 | CN1CCC([C@@](C)(O)c2ccc3cnc(Nc4cc(N5CCCC5=O)ccc4F)cc3n2)CC1 | ++ (greater than 10-fold and less than or equal to 100-fold more active against CDK5 than CDK2)
0.1 to 1 | < 0.01 | C[C@@H]1CNCC[C@@H]1Sc1ccc2cnc(Nc3ccc(-n4ccc(CO)n4)cc3F)cc2n1 | ++ (greater than 10-fold and less than or equal to 100-fold more active against CDK5 than CDK2)
0.1 to 1 | < 0.01 | O=S(=O)(c1ccc2cnc(Nc3ccc(-n4ccc(CO)n4)cc3F)cc2n1)C1CCN(CC2COC2)CC1 | +++ (greater than 100-fold more active against CDK5 than CDK2)
0.01 to 0.1 | < 0.01 | CN1CCC(S(=O)(=O)c2ccc3cnc(Nc4ccc(N5CCOCC5=O)cc4)cc3n2)CC1 | ++ (greater than 10-fold and less than or equal to 100-fold more active against CDK5 than CDK2)
0.1 to 1 | < 0.01 | COc1cc(-c2ccc(Nc3cc4nc([C@@](O)(C5CCN(C)CC5)C(F)(F)F)ccc4cn3)c(F)c2)ccn1 | ++ (greater than 10-fold and less than or equal to 100-fold more active against CDK5 than CDK2)
0.01 to 0.1 | < 0.01 | C[C@H]1CNCC[C@@H]1Sc1ccc2cnc(Nc3ccc(-n4ccc(CO)n4)cc3F)cc2n1 | ++ (greater than 10-fold and less than or equal to 100-fold more active against CDK5 than CDK2)
0.01 to 0.1 | < 0.01 | CN1CCC(S(=O)(=O)c2ccc3cnc(Nc4ccc(CC#N)cc4)cc3n2)CC1 | ++ (greater than 10-fold and less than or equal to 100-fold more active against CDK5 than CDK2)
0.01 to 0.1 | < 0.01 | CN1CCC([C@@](C)(O)c2ccc3cnc(Nc4ccc(-c5ccccc5C#N)cc4F)cc3n2)CC1 | ++ (greater than 10-fold and less than or equal to 100-fold more active against CDK5 than CDK2)
0.1 to 1 | < 0.01 | CN1CCC(S(=O)(=O)c2ccc3cnc(Nc4cccc(C(N)=O)c4)cc3n2)CC1 | +++ (greater than 100-fold more active against CDK5 than CDK2)
0.01 to 0.1 | < 0.01 | CN1CCC(Sc2ccc3cnc(Nc4ccc(-c5cccc(C#N)c5)cc4F)cc3n2)CC1 | +++ (greater than 100-fold more active against CDK5 than CDK2)
0.01 to 0.1 | < 0.01 | N#Cc1cccc(Nc2cc3nc(SC4CCNCC4)ccc3cn2)c1 | ++ (greater than 10-fold and less than or equal to 100-fold more active against CDK5 than CDK2)
0.01 to 0.1 | < 0.01 | CCc1ccc(F)c(Nc2cc3nc(C(C)(O)C4CCN(C)CC4)ccc3cn2)c1 (stereo not drawn) | ++ (greater than 10-fold and less than or equal to 100-fold more active against CDK5 than CDK2)
